Test results from BindingDB's records for doi:10.1021/jm00010a022 (Duquesne University, 1995).

Assay: Inhibitory activity against cultured Toxoplasma gondii

With `COc1cc(NCc2cnc3nc(N)nc(N)c3c2C)cc(OC)c1OC` [5-Methyl-6-[(3,4,5-trimethoxy-phenylamino)-methyl]-pyrido[2,3-d]pyrimidine-2,4-diamine] the IC50 was 23 µM.
